Measurements from ChEMBL document CHEMBL1154350 (Bioorg Med Chem Lett, 2009).

Columns and labels:
[1] = target: T1, Succinyl-diaminopimelate desuccinylase (Haemophilus influenzae (strain ATCC 51907 / DSM 11121 / KW20 / Rd), UniProt P44514); assay: Inhibition of Haemophilus influenzae recombinant DapE
T1 sequence (P44514 whole entry): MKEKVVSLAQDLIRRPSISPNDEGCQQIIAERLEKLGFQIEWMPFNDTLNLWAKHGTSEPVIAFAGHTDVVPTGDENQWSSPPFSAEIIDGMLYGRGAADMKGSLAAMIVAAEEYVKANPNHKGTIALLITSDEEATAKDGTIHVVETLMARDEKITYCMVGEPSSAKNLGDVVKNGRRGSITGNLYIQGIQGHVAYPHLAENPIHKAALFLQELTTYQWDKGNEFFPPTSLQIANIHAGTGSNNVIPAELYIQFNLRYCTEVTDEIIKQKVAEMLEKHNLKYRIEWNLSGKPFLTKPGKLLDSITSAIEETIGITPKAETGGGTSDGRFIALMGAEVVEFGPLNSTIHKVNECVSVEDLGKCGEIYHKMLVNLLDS

[2] = target: T1, Succinyl-diaminopimelate desuccinylase; assay: Inhibition of Haemophilus influenzae recombinant DapE by competitive binding assay

Molecule `OB(O)c1ccccc1` [PHENYLBORONIC ACID] has an IC50 [1] of 107 µM and a Ki [2] of 56.9 µM.
